Test results: ChEMBL document CHEMBL1795334, “Towards predictive inhibitor design for the EGFR autophosphorylation activity” (Eur J Med Chem, 2008)

Protein sequences, listed by entry. Tags and fused reporters are not part of them.
UniProt P00533, whole entry: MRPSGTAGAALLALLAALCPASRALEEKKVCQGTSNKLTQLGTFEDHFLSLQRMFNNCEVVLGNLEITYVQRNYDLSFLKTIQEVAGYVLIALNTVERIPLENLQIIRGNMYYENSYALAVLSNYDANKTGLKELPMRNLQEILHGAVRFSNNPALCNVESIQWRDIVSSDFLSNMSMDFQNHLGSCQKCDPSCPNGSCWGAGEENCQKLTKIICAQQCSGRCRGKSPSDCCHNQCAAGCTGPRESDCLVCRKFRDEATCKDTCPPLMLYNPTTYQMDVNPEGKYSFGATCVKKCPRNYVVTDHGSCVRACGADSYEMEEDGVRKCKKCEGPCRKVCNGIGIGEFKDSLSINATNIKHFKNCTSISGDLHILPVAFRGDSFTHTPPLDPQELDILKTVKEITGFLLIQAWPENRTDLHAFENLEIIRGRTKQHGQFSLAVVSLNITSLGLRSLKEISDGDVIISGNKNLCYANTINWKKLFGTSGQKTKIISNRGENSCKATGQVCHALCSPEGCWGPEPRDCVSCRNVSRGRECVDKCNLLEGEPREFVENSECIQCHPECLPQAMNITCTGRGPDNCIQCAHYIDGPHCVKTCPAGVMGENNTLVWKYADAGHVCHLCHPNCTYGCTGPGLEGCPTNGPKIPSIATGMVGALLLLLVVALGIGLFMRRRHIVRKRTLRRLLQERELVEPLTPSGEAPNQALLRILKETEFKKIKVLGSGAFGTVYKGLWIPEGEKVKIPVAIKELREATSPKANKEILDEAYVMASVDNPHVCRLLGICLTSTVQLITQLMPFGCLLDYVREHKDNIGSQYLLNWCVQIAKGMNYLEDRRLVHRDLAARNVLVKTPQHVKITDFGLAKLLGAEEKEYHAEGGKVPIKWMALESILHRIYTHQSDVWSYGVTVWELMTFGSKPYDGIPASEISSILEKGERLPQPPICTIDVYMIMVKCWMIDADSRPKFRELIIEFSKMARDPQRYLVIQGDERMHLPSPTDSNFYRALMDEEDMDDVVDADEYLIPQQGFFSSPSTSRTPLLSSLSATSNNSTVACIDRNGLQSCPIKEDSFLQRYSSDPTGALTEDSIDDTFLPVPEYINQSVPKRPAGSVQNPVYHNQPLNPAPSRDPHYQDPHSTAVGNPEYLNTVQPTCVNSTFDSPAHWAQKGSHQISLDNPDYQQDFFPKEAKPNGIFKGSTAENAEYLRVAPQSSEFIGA

What follows are compounds tested against Epidermal growth factor receptor (Homo sapiens, UniProt P00533) (assay: Inhibition autophosphorylation of EGFR in human DiFi cells after 2 hrs by ELISA).
Format: cell-based

IC50 [nM] | Compound
537 | COc1cc2ncc(C#N)c(Nc3ccc(F)c(Cl)c3)c2cc1OC
1450 | COc1cc2ncc(C#N)c(Nc3cccc(C(F)(F)F)c3)c2cc1OC
851 | COc1cc2ncc(C#N)c(Nc3cccc(N(C)C)c3)c2cc1OC
871 | COc1cc2ncc(C#N)c(Nc3cccc([N+](=O)[O-])c3)c2cc1OC
158 | COc1cc2ncc(C#N)c(Nc3ccc(F)c(C(F)(F)F)c3)c2cc1OC
363 | COc1cc2ncc(C#N)c(Nc3ccccc3C(C)C)c2cc1OC
15100 | COc1cc2ncc(C(N)=O)c(Nc3cccc(Br)c3)c2cc1OC
6610 | COc1cc2ncc(C#N)c(Nc3ccc(Br)cc3)c2cc1OC
17000 | COc1cc2ncc(C#N)c(Nc3cc(Cl)ccc3O)c2cc1OC
50100 | COc1ccc(Nc2c(C#N)cnc3cc(OC)c(OC)cc23)cc1OC
